Only a part is listed here, and it is no random draw. Calls of active or inactive are those of the source.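 Rule for the calls: active = inhibition above 3 SD of the buffer control wells (cut at about 41% in these data); inactive = the rest.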
Assay: inhibition of M3R-evoked calcium signal on retest – cell-based, HEK293 M3R/RGS4 inducible, calcium flux, duplicate, RGS4 activator project, confirmation (AID 602282);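 note: signal is the integrated peak-minus-minimum Fluo4 fluorescence over baseline ratio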
Settings: carbachol calcium flux Fluo4, at 10 µM, stronger effect = higher value

Row | Compound | inhibition
1 | CN1CCCCC1COC(=O)C1(O)c2ccccc2CCc2ccccc21 (centres undefined) | active: 93%
2 | CCN(CC)CCCOC(=O)C(O)(c1ccccc1)c1ccccc1 | active: 93%
3 | O=C(OCCCN1CCCC1)C(O)(c1ccccc1)C1CCCCC1 (centres undefined) | active: 93%
4 | CN(C)CCOC(=O)C(O)(c1ccccc1)C1CCCCC1 (centres undefined) | active: 93%

From PubChem BioAssay AID602282 (Johns Hopkins Ion Channel Center, 2012)
